Measured values as given in publication PMC11923837, “Proline-Modified (RW)n Peptides: Enhancing the Antimicrobial Efficacy and Selectivity against Multidrug-Resistant Pathogens” (ACS Omega, 2025).

Test system: Klebsiella pneumoniae ATCC 700603
Settings: minor letter component 5 mg
Procedure: Antimicrobial activity was evaluated using the Community for Open Antimicrobial Drug Discovery (CO-ADD) screening platform. Minimum inhibitory concentrations (MICs) were determined against the following five bacterial strains: Escherichia coli (E. coli) ATCC 25922, Klebsiella pneumoniae ATCC 700603, Acinetobacter baumannii ATCC 19606, Pseudomonas aeruginosa ATCC 27853, and Staphylococcus aureus ATCC 43300.
Bacteria were cultured in cation-adjusted Mueller–Hinton broth (CAMHB) at 37 °C overnight. Cultures were diluted 40-fold in fresh broth and incubated at 37 °C for 1.5–3 h. […]
Bacterial growth inhibition was determined by measuring the absorbance at 600 nm (OD600) using a Tecan M1000 Pro monochromator plate reader. The percentage of growth inhibition was calculated using negative (media only) and positive (bacteria without inhibitors) controls. Significance was determined by modified Z scores calculated using the median and MAD of the samples on the same plate. […]
The fractional inhibitory concentration (FIC) index was calculated to determine synergy, additivity, or antagonism.
Colistin and VAN were used as positive bacterial inhibitor standards for Gram-negative and Gram-positive bacteria, respectively. The quality control (QC) of the assays was determined by the antimicrobial controls and the Z’ factor (using positive and negative controls). […]

penicillin [reference compound]
MIC against Kp (K. pneumoniae ATCC 700603, CAMHB, 5 × 10^5 CFU/mL, 37 °C, 18 h, OD600, mixtures: capital letter component 95 mg): >32 µg/mL
MIC, Kp (Table 1S) (supplement Table 1S, unit not given (main-text tables: μg/mL), capital letter component 95 mg): > 32
